Experiments:
[1] = tested on: SOD-proficient E. coli AB1157
[2] = Cyclic voltammetry, metal-centered redox potential; type: physicochemical
Procedure: Manganese(III) Salen. The compound was prepared by the published procedure (Boucher, J. lnorg. Nucl. Chem. 36:531 (1974)). The uv/vis in water: ε235=3.70×10^4 cm^−1 M^−1, ε279=1.70×10^4 cm^−1 M^−1, ε397=4.60×10^3 cm^−M^−1. The elemental analysis: Anal. Calcd for Mn^IIIsalenCl, C16H14N2O2MnCl: C, 53.88; H, 3.96; N; 7.85. Found: C, 54.02; H, 4.06; N, 7.85. […] Based on the E1/2 of Mn^IIITM-2-PyP^5+, ferrocenemethanol and of K3Fe(CN)6 in water and methanol, the redox potential of Mn^III salen^+ in water was calculated to be E1/2=−0.13 V vs NHE.
Electrochemistry of the Manganese(III) Biliverdin Dimethylester. Measurements were made using a CH Instruments model 600 voltammetric analyzer as described previously(Batinic-Haberle et al, Inorg. Chem. 38:4011 (1999)). A three-electrode system in a small volume (0.5-3.0 mL), with a 3 mm diameter glassy carbon button working electrode (Bioanalytical Systems), Ag/AgCl reference electrode (3 M NaCl, Bioanalytical Systems), and a Pt wire (0.5 mm) as auxiliary electrode, were used. The cyclic votammetry was performed on 0.5 mM (per manganese) methanol/aqueous (90/10, v/v) solutions of the compounds investigated. The ionic strength was kept at 0.10 M (NaCl), and 0.05 M tris buffer was used for pH^* adjustment. For calibration purposes, compounds of different hydrophilicities, […], (Kolthof et al, J. Phys. Chem. 39:945 (1935)) ferrocenemethanol and Mn^IIITM-2-PyP^5+ were studied in both aqueous and methanol/aqueous (90/10, v/v) solutions (I=0.10 M NaCl, 0.05 M tris buffer, pH^* 7.9). In all cases the measured E1/2 was 170 mV more positive in methanolic than in aqueous solution and this value was used to predict the redox potential in aqueous solution from measurement in methanol/aqueous solution. In addition, Mn^IIITM-2-PyP^5+ was added as an internal standard when cyclic voltammetry of {Mn^IIIBVDME}2 in methanol was performed.

Manganese(III) Biliverdin IX Dimethylester [{Mn^IIIBVDME}2]
effect on growth of SOD-proficient E. coli [1]: did not affect the growth
E1/2, V vs NHE ([2]; Mn(III)/Mn(II) couple, extrapolated/calculated redox potential in aqueous solution): −0.23 V vs NHE
E1/2, V vs NHE ([2]; Mn(III)/Mn(IV) couple, extrapolated redox potential in aqueous solution, listed as compound of FIG. 2C): +0.45 V vs NHE
E1/2, V vs NHE ([2]; Mn(III)/Mn(IV) couple, extrapolated redox potential in aqueous solution, listed as ½ {Mn^III/IVBVDME^0/−}2): −0.45 V vs NHE

From US20040039211A1, “Tetrapyrroles” (DUKE UNIVERSITY AND NATIONAL JEWISH MEDICAL AND RESEARCH …, priority 2000, published 2004)
